## Apparent affinities of Ab-14 variants for a coronavirus HR2 peptide

Source: Li et al. 2023 (doi:10.1038/s41467-023-39022-2), MIT Lincoln Laboratory and A-Alpha Bio; data file from the FLAb repository.

Binding partner: SARS-CoV-2 spike HR2 peptide, sequence PDVDLGDISGINAS.

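Phage display of a naive human antibody library on the peptide gave the parent. The variants were designed computationally from a first round of random CDR variants and then made and measured. Group labels follow the data file (Ctrl: baseline library sampled from a position-specific scoring matrix, with some repeated check sequences; En: ensemble of fine-tuned language models; GP: Gaussian process model; HC: hill climbing; Gen: genetic algorithm; Gibbs: Gibbs sampling; a sequence that several methods proposed may carry one label only). Affinity was read by AlphaSeq, a pooled yeast mating assay with surface-displayed partners. Binding brings cells together so that they mate, and sequencing counts the barcode pairs among the diploids. The ratio of observed to expected reads was calibrated, replicate by replicate, on BCL2-family standards whose Kd was known from biolayer interferometry. Each pool was mated in six replicate cultures.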

Parent: Ab-14, a human scFv built as VH, the linker GGGGSGGGGSGGGGS, VL. Only the CDRs of the light chain vary.
VH: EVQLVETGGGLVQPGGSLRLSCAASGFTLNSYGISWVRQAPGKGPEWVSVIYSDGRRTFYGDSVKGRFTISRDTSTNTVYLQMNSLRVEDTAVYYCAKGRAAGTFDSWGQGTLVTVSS
VL: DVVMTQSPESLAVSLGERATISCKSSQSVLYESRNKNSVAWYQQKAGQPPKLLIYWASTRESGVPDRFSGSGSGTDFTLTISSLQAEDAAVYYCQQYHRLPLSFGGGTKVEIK

Variants are written as CDR1, CDR2 and CDR3 of the light chain (limits as in the source). Parent: KSSQSVLYESRNKNSVA, WASTRES, QQYHRLPLS.
Numbers give log10(Kd / nM), so 0 is 1 nM and 3 is 1 µM. Smaller is tighter.
Replicates are averaged; those with no signal do not enter the mean.
Where no diploid with the target was found in any replicate, the entry reads "nd": below detection, most likely a poor binder, though not proof of it.
Empty control strains, which show no peptide, gave a signal in 4% of pairings with all light chain designs; the median was 2.64 and 95% of these signals were weaker than 1.59. No background was subtracted.
Values of this round are not directly comparable with the first-round values of the same sequences.
In the paper, a design with two or fewer of six values counts as a poor binder.

CDR-L1 | CDR-L2 | CDR-L3 | group | log10 Kd (nM), mean | replicates with signal
KVDMGELPNGFNRSSIA | QAEVRAP | QQYWQLPLE | En_Gibbs | 1.47 | 5/6
KSSTSVLYESRNKNSVA | GASVRSS | QQYHRLPLS | Ctrl | 0.60 | 6/6
KSSQSVLYVSRNKNSVA | WASTRES | QQYHRLPLS | Ctrl | nd | 0/6
KLSQSVEYESRQKNSVA | NASQRES | QQYHRLPLS | GP_Gen | -0.17 | 6/6
KSSESVLMESRNKNSVA | WASTRES | QQVHRLPLS | Ctrl | 2.63 | 5/6
KMTKAEQSIGSHQANIA | DSNKITD | QQYYRLPLT | En_Gibbs | 0.97 | 5/6
KISMTSENQLKNRNSVA | ELVTRMN | QQYNRLPLS | En_Gen | 1.15 | 6/6
HQSPSVLYESRNKNSVA | NASTRES | QQYHRLPLQ | GP_HC | -0.03 | 6/6
SLMQSVLYESRNKNSVA | HASLRES | QQYHRLPLS | GP_HC | 0.15 | 6/6
KWSQSKLYESRVKNSVA | WASTREE | QQYHRLPLS | Ctrl | 2.07 | 4/6
TISQSWMIESRNKNNVA | EMSTREN | QDYDRLPLS | En_HC | 0.96 | 6/6
MIGEMLYQGAYKRNSVA | QANLRED | QHYHRLPLE | En_Gen | 0.71 | 6/6
KSQQSELYESRNKNSVA | NASTRLS | QQYHRLPLS | GP_Gen | -0.14 | 6/6
KFSQSDLYNSRNKNSVA | WASTRES | QQYHREPLS | Ctrl | 2.54 | 5/6
KLSQSMEYESRNKNSVA | NASTRLS | QQYHRLPLS | GP_Gen | -0.21 | 6/6
KHSQSVLYESRNKNNVA | EASTRES | QQYHRLPLS | GP_Gen | 0.37 | 6/6
KSSQSVLYESRFTNSVA | WASTRES | QQYHRLPLS | Ctrl | nd | 0/6
KLSKMVMEGSRNKNSVA | SASQREE | QQYHRLPLS | GP_Gibbs | 0.09 | 6/6
HISMMVGTKGYNKNSVA | NAETRED | QQYHRLPLS | En_HC | 2.26 | 6/6
QLMQVGGYEMNAHNSIA | DLRTREN | QQYHRLPLS | En_HC | 0.83 | 6/6
HLQEQSFMGQKNYSSMA | NTECKYN | QQYARLPLM | En_Gibbs | 1.81 | 2/6
KSSSEVEYESYNKNQVA | WASTRES | QQYHRLPLS | Ctrl | 2.37 | 3/6
KLSQSWLYEQRNKNSVA | NASQRES | QQYHRLPLS | GP_Gen | 0.03 | 6/6
KLEMSQLYESRNKNNVA | SASHREH | QQYHRLPLS | GP_Gibbs | -0.31 | 6/6
WSSQSSLYESMNKNNVA | WASTRES | QQPHRLPIN | Ctrl | 0.04 | 5/6
KISQMAWYESTWWNAIA | QTSTREE | QQYHRLPLS | En_HC | 0.76 | 6/6
KLSISHHVESINKSNVA | EMVTRES | QQYDRLPLS | En_HC | 0.98 | 6/6
KSDQAVLYESGNKNSVA | WASTRES | QQYQRLSLS | Ctrl | 1.00 | 2/6
QFEFTEEEGYQYSNNIA | NGETRFS | QQYVKLPLV | En_Gibbs | 0.28 | 6/6
KVSQSVLPESRNKNSVA | DASTRES | QQYHRLPLS | GP_Gen | 0.13 | 6/6
KLYERGEGSSKVDRNIA | EMSTRCE | QSYQRLPLS | En_Gibbs | 0.75 | 6/6
KVDQWVEYGSRNKNSVA | SASQRFS | QQYHRLPLS | GP_Gibbs | 1.02 | 6/6
KLSLSVLQESRNKNSVA | NASTRES | QQYHRLPLS | GP_HC | -0.16 | 6/6

Second part, the sequence after the result:

log10 Kd (nM), mean | replicates with signal | CDR-L1 | CDR-L2 | CDR-L3 | group
3.15 | 4/6 | QLQFEDVQYGVNEQAIA | EENQRMQ | QHYFRLPLI | En_Gibbs
-0.10 | 6/6 | KLSQSRLYESRNKNSVA | NASQRES | QQYHRLPLS | GP_Gen
-0.48 | 6/6 | KSQISEGYEQRNKNSVA | EASTRCD | QQYHRLPLS | GP_Gibbs
0.36 | 6/6 | KVSQGMWYESRMKNSVA | NASMREQ | QQYHRLPLQ | GP_Gibbs
nd | 0/6 | KSSQSVLYFSRNKNSVA | HASTREY | QQYHRLPLS | Ctrl
0.70 | 6/6 | ALASTGYQVDSQMQNIA | DGMERES | QQYNRLPLT | En_Gibbs
0.83 | 6/6 | KLRQSTLYESRNKNSVA | WASQRLS | QQYHRLPLS | GP_HC
0.58 | 6/6 | KLSMTTEMEHKNRNSVA | ELVTRMS | QQYNRLPLS | En_Gen
0.70 | 6/6 | KISSLTMYESVNKNNIA | EMTTRPE | QSYHRLPLS | En_HC
-0.27 | 6/6 | KIQQSELQSSRNKNSVA | NASERES | QQYHRLPLS | GP_Gibbs
0.10 | 6/6 | KQSQSWLYESRNKNSVA | GASTRES | QQYHRLPLS | GP_HC
0.13 | 6/6 | KSSQSVLYESRNKNSVA | DASTRQS | QQYHRLPLS | Ctrl
nd | 0/6 | KSSSSVLDESRNKNSVA | WASTRES | QQYHYLPLS | Ctrl
nd | 0/6 | KSSQSVLYESQNKNSVA | GASTRES | QQYHRLPEL | Ctrl
1.07 | 2/6 | MISQVMNTLTRTGNNVA | DLAERED | QQYFRLPLS | En_Gen
3.86 | 1/6 | KSSQSVDYEGRNKNSVA | WAGTRES | QHYHRLPLS | Ctrl
3.47 | 5/6 | KMSQSVEYEHLNNNSVA | WESTRES | QQYHRLPLS | Ctrl
0.79 | 6/6 | KSSQSWLYESRNKNSVA | WASTRES | QQYHMLPLS | Ctrl
-0.29 | 6/6 | KLSQSDLYESRNKNSVA | NASQRMS | QQYHRLPLS | GP_Gen
1.44 | 6/6 | KISQSVLYESRNKKSVA | WASTRES | QQYHRLPLS | Ctrl
-0.54 | 6/6 | ASSQGWLYEDRNKNSVA | GASTRED | QQYHRLPLS | GP_HC
3.05 | 1/6 | NLMSHQSELSVWKYSIA | SASIRLS | QQYFRLPLA | En_Gibbs
1.52 | 6/6 | KSSQSQLYESRNKNSVA | WASTREQ | QQYHRLPLS | Ctrl
-0.28 | 6/6 | KLSQSVLYQSRNKNNVA | NAQTRMS | QQYHRLPLS | GP_Gibbs
-0.19 | 6/6 | HFSPSVLYESRNGNSVA | NASTRES | QQYHRLPLS | GP_HC
0.17 | 6/6 | KLSQSELYESRNKNSVA | NASTRVS | QQYHRLPLS | GP_Gen
-0.36 | 6/6 | KLQQSDLYESRNKNSVA | NASQRES | QQYHRLPLS | GP_Gen
1.98 | 5/6 | TLSDWLTYGMEQMNRIA | DRSHLEW | QQYGRLPLS | En_Gibbs
1.23 | 6/6 | KIGMTLNQLMHKKNNVA | DLVMREQ | QQYHRLPLS | En_Gen
-0.02 | 6/6 | KVSQSVPYESRNKNSVA | EASQRES | QQYHRLPLS | GP_Gen
-0.16 | 6/6 | KFSQSVLMESRDENSVA | HASTRES | QQYHRLPLS | Ctrl
1.08 | 6/6 | HMSMLSLMGSRNRNSVA | QMTTREN | QQYDRLPLI | En_Gen
0.49 | 4/6 | KIDENTFHGANRQNNIA | EARTVGA | QQYFRLPII | En_Gibbs
-0.58 | 6/6 | KVSQSVLYESRNKNNVA | DASTRES | QQYKRLPLS | Ctrl